From US20180044685A1, “APPLICATION OF SYK SERVING AS THERAPEUTIC TARGET FOR HEPATIC FIBROSIS/HEPATIC CIRRHOSIS” (priority 2015, published 2018)

Test system: human primary HSCs
Experiment: qRT-PCR of HSC activation indexes (α-SMA and PDGFRβ mRNA) after SYK inhibitor treatment
Format: cell-based
Conditions: GS-9973 1 μM, 48 hours, two strains of human primary HSCs

c1cn2cc(-c3ccc4cn[nH]c4c3)nc(Nc3ccc(N4CCOCC4)cc3)c2n1 [GS-9973, Entospletinib]
mRNA level of activation marker PDGFRβ: significantly reduce
mRNA level of activation marker α-SMA: significantly reduce
